Key:
[1] = system: rat chronic constriction injury of the sciatic nerve model; assay: Analgesic effect in rat chronic constriction injury of the sciatic nerve model (mechanical allodynia, von Frey filaments); settings: 10 mg/kg PO
Protocol: Test Example 6 Study on the analgesic effect of the compounds of the present invention on inhibiting pain in a rat chronic constriction injury of the sciatic nerve model
(§1) A 5% DMSO + 10% Solutol + 85% Saline solution was used.
Experimental animals: Sprague-Dawley rats, weighing 80-100 g, male, purchased from Beijing Vital River Laboratory Animal Technology Co., Ltd.
• 1) The surgical procedure was performed under aseptic conditions. • 2) Surgical instruments (scissors, forceps, scalpels, surgical cotton, and sutures) were sterilized before surgery. • 3) The animals were anesthetized with Zoletil 50 + xylazine hydrochloride injection (20 mg/kg + 8 mg/kg, intraperitoneal injection). The toes of the animals were pinched to confirm complete anesthesia before surgery. An ophthalmic ointment was applied to the eyes of the animals to prevent corneal drying. • 4) The skin in the surgical area of the left hind plantar surface was disinfected three times with iodophor and 70% ethanol. The surgery was started after the skin dried. • 5) The left sciatic nerve was isolated. Four loose ligatures were tied around the sciatic nerve using 4-0 chromic gut sutures at approximately 7 mm proximal to the bifurcation, with a spacing of about 1 mm between the ligatures. • 6) The wound was sutured. • 7) The surgical instruments were cleaned and sterilized using a hot bead sterilizer. • 8) After surgery, the animals were placed on a heating pad, and 5 mL of normal saline was injected subcutaneously to prevent dehydration. After the animals were fully awake (able to move freely), they were returned to their cages.
1) On days 7 to 9 post-surgery, the animals were placed in the testing environment to habituate for at least 30 minutes per day. 2) On day 10 post-surgery, the baseline measurement of mechanical allodynia (PWT) was performed on all animals.
On day 11 post-surgery, the animals in all groups were weighed and administered according to the grouping information.
The mechanical allodynia test was performed on each animal using testing filaments at 1 h and 2 h after a single dose administration.
• 1) The rats were placed individually in a Plexiglas box with a wire mesh floor to ensure that the paws of the rats could be tested. The rats were allowed to habituate for 15 minutes before the test. • 2) After habituation, the test was performed using testing filaments on the central plantar surface of the left hind paw of the rats. The testing filaments included 8 testing strengths: 3.61 (0.4 g), 3.84 (0.6 g), 4.08 (1 g), 4.31 (2 g), 4.56 (4 g), 4.74 (6 g), 4.93 (8 g), and 5.18 (15 g). During testing, the test filament was pressed vertically against the skin with enough force to bend the filament for 6-8 seconds, with an interval of 5 seconds between each test. During testing, a rapid paw withdrawal by the animal was recorded as a pain response. Paw withdrawal when the test filament was removed from the animal's skin was also recorded as a pain response. If the animal moved or walked around, it was not recorded as a pain response, and the test should be repeated. • 3) During the test, the 4.31 (2 g) filament was used first. […] The maximum strength of the testing filaments was 5.18 (15 g). • 4) The test results were recorded in the table below, where a pain response was recorded as "x" and no pain response was recorded as "o". [formula]
Mechanical allodynia is expressed as the paw withdrawal threshold (PWT) in the rat behavioral test, which is calculated according to the following formula: 50% response threshold (g) = (10^((Xf+kδ)))/10,000 [formula] • Xf = value of the final testing filament used in the test • k = tabular value (Chaplan et al. 1994, page 62) • δ = mean difference (0.224)
Data were analyzed using Prism software (GraphPad Software, Inc.).

Sequences of proteins named here, by UniProt entry; tags and fusion partners are left off.
UniProt P50052, whole entry: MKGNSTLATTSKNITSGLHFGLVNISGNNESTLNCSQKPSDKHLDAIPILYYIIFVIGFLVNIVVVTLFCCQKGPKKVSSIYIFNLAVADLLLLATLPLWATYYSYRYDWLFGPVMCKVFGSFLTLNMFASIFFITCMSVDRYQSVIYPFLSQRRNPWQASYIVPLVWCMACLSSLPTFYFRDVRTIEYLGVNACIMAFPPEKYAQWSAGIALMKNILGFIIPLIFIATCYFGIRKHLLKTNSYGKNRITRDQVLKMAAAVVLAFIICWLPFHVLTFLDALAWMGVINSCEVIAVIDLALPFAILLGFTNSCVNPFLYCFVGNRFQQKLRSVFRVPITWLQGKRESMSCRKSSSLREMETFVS

AT2 receptor = AT2 receptor (Homo sapiens, UniProt P50052); assay: AT2R Binding assay (Tag-lite HTRF, affinity for AT2 receptor); settings: read-out: AT2R IC50; Tag-lite Angiotensin AT2 labeled Cells, 25 °C, 1 hour
Protocol: Test Example 1 Determination of the affinity of the test compounds for AT2 receptor by AT2R Binding assay
1. Reagent preparation • 1.1 Cell line: Tag-lite Angiotensin AT2 labeled Cells; • 1.2 Assay buffer: 1X TLB (5 mL 5X TLB + 20 mL H2O); 2. Activity assay of the test compounds • 2.1 1X TLB assay buffer, 4X working solutions of the test compounds, and 4X Tag-lite angiotensin receptor red agonist (Cisbio, L0007RED) were prepared; • 2.2 One vial of labeled-AT2R cells was thawed in a water bath at 37 °C until the ice completely melted (1-2 min). The thawed cells were quickly transferred to 5 mL of 1X TLB, mixed gently, and centrifuged at 200 g for 5 min; • 2.3 The supernatant was discarded, and the cells were resuspended and mixed with 1 mL of 1X TLB. Then, 1.7 mL of 1X TLB was added and mixed, and the mixture was kept at room temperature for later use; • 2.4 10 µL of cells were added to a 384-well plate (Greiner, 784075) and centrifuged at 200 g at RT for 3 s; 5 µL of the 4X compound was added to the 384-well plate; 5 µL of the 4X Tag-lite angiotensin receptor red agonist was added to all test wells; • 2.5 The reaction plate was left to stand at room temperature of 25 °C for 1 hour, and then centrifuged at 200 g, RT for 60 s. Data was collected using an Envision HTRF detector. 3. Data analysis • 3.1 Calculation of % inhibition: [formula] • 3.2 Calculation of compound IC50 using GraphPad non-linear fitting formula: Y = Bottom + (Top-Bottom)/(1+10^(∧)((LogIC50-X)*HillSlope)) [formula] • X: log value of compound concentration; Y: % inhibition 4. Experimental results

[2] = system: mouse selective nerve injury model; assay: Analgesic effect in mouse selective nerve injury model (mechanical allodynia, von Frey filaments); settings: 10 mg/kg p.o. single dose, 1, 2 and 4 hours after administration; larger AUC = better analgesic effect
Protocol: Test Example 5 Study on the analgesic effect of the compounds of the present invention on inhibiting pain in a mouse selective nerve injury model
as §1
Experimental animals: C57BL/6 mice, weighing 18-22 g, male, purchased from Beijing Vital River Laboratory Animal Technology Co., Ltd.
• (1) The surgical procedure was performed under aseptic conditions. • (2) Surgical instruments (scissors, forceps, scalpels, surgical cotton, and sutures) were sterilized before surgery. • (3) The animals were anesthetized with Zoletil 50 (50 mg/kg) + xylazine hydrochloride injection (8 mg/kg) (intraperitoneal injection, 2.5 mL/kg). The toes of the animals were pinched to confirm complete anesthesia before surgery; an ophthalmic ointment was applied to the eyes of the animals to prevent corneal drying. • (4) The hair in the surgical area of the animals was shaved, and the skin was disinfected three times with iodophor and 70% ethanol; the surgery was started after the skin dried. • (5) The sciatic nerve and its three distal branches (the tibial, common peroneal, and sural nerves) were exposed. The tibial and common peroneal nerves were transected using ophthalmic scissors, and the sural nerve was spared. • (6) The wound was sutured. • (7) The surgical instruments were cleaned and sterilized using a hot bead sterilizer. • (8) After surgery, the animals were placed on a heating pad, and 1 mL of normal saline was injected subcutaneously to prevent dehydration. After the animals were fully awake (able to move freely), they were returned to their cages.
On days 4-6 post-modeling, the animals were placed in the testing environment for habituation for 30 minutes/day for 3 consecutive days. On day 7 post-modeling, the baseline measurement of mechanical allodynia was performed on the modeled animals.
The mice in each group were given a single dose of the corresponding drug via intraperitoneal or oral administration at 10 mL/kg according to the experimental protocol.
On day 8 post-modeling, the mechanical allodynia test was performed on the left hind paw of the mice at 1, 2, and 4 hours after administration.
The mice were placed individually in a Plexiglas box with a wire mesh floor to ensure that the paws of the mice could be tested. The mice were allowed to habituate for 15 minutes before the test.
After habituation, the test was performed using testing filaments on the central plantar surface of the left hind paw of the mice. The testing filaments included 8 testing strengths: 2.36 (0.02 g), 2.44 (0.04 g), 2.83 (0.07 g), 3.22 (0.16 g), 3.61 (0.4 g), 3.84 (0.6 g), 4.08 (1 g), and 4.17 (1.4 g). […] During testing, a rapid paw withdrawal by the animal was recorded as a pain response. Paw withdrawal when the test filament was removed from the animal's skin was also recorded as a pain response. If the animal moved or walked around, it was not recorded as a pain response, and the test should be repeated. […]
Mechanical allodynia is expressed as the paw withdrawal threshold (PWT) in the mouse behavioral test, which is calculated according to the following formula: • 50% response threshold (g)= (10^(Xf+kδ)/10,000 • Xf=value of the final testing filament used in the test • k = tabular value (Chaplan et al. 1994, page 62) • δ = mean difference
Data were analyzed using one-way or two-way analysis of variance (ANOVA) followed by Dunnett's multiple comparisons test in Prism software (GraphPad Software, Inc.). […]

| SMILES | PWT ([1]; testing time point 0 h) [g] | PWT ([1]; testing time point 1 h) [g] | PWT ([1]; testing time point 2 h) [g] | IC50 (AT2 receptor) [nM] | Mean AUC value (AUC0-4h of analgesic effect, paw withdrawal threshold) [2] |
| --- | --- | --- | --- | --- | --- |
| CC(C)Cc1cc(N2CCN(Cc3cccnn3)[C@@H](C)C2)c(-c2nn[nH]n2)c(N2CCC(F)(F)C2)c1 | 2.82 | 5.88 | 7.02 | 3.08 | – |
| CC(C)Cc1cc(NC2CCCC2O)c(-c2nn[nH]n2)c(N2CCN(Cc3cccnn3)[C@@H](C)C2)c1 (stereo partly shown) | – | – | – | 11 | 2.480 |
| CC(C)Cc1cc(CN2CCC(F)(F)C2)c(-c2nn[nH]n2)c(N2CCN(Cc3cccnn3)[C@@H](C)C2)c1 | – | – | – | 6.75 | 2.280 |
| CC(C)Cc1cc(Cn2cc(C(F)(F)F)cn2)c(-c2nn[nH]n2)c(N2CCN(Cc3cccnn3)[C@@H](C)C2)c1 | – | – | – | 1.07 | 2.856 |

— patent EP4847503A1, “TETRAZOLE COMPOUND, PHARMACEUTICAL COMPOSITION THEREOF AND USE THEREOF” (dated 2026)
